What is called inhibition is the relative decrease from the control value, in per cent.

Amino acid sequences for entries named in this document (tags omitted).
UniProt Q17339, whole entry: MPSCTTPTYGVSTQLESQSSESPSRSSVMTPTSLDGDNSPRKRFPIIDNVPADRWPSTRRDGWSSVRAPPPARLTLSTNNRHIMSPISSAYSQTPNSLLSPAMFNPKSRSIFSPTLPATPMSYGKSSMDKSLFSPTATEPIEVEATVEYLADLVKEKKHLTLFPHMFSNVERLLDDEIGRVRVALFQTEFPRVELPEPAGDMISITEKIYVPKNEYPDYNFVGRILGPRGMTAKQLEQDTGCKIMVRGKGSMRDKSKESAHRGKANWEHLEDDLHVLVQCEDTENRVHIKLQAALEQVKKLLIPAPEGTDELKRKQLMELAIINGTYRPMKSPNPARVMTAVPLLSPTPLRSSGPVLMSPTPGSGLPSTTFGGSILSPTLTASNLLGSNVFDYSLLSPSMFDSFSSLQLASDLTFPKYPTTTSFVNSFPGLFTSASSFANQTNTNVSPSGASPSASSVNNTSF

This is a selection; strong and weak results do not stand in their true shares. Some salts and complexes are drawn in separate pieces, as the source files them; their charges need not balance. Activity calls are given as the source filed them.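 How the source made its calls: active means percent inhibition above a per-plate cutoff, the plate mean of test compounds plus 3 SD (cut at about 30% in these data); inactive means the rest.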

The target in the assay is Female germline-specific tumor suppressor gld-1 (Caenorhabditis elegans) (UniProt Q17339). Nature of the assay: small molecules blocking C. elegans GLD-1 RNA recognition – biochemical, fluorescence polarization, primary screen (AID 2280).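 Further: 0% = DMSO wells with GLD-1 and probe and 100% = wells lacking GLD-1.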 Particulars: purified GLD-1 + fluorescein TGE RNA, at 5.96 µM, active compounds read high. (Fluorescence polarisation rises when a labelled molecule tumbles more slowly, as on binding a larger partner.)
Consider `CC1=NCCc2c1[nH]c1ccccc21.O=[N+]([O-])c1cc([N+](=O)[O-])c(O)c([N+](=O)[O-])c1`, for which the inhibition was inactive: -5.52%.

Consider `O=C(O)c1cccc(Nc2c([N+](=O)[O-])cc([N+](=O)[O-])cc2[N+](=O)[O-])c1`, for which the inhibition is inactive: 3.84%. To `CP(=O)(Nc1cccc(Br)c1)Oc1ccccc1` (configuration not stated) belongs inactive: -5.33%. To `Cc1cc(C)cc(OP(C)(=O)Nc2ccccn2)c1` (configuration not stated) belongs inactive: -1.99%.

For `Cc1ccc(C)c(NP(C)(=O)Oc2ccccc2)c1` (configuration not stated), the inhibition is inactive: -1.44%. To `Cc1cc(C)cc(OP(C)(=O)Nc2ccc(C)cc2C)c1` (configuration not stated) belongs inactive: 1.66%; to `CCOC(=O)c1ccc(NP(C)(=O)Oc2cc(C)cc(C)c2)cc1` (configuration not stated), inactive: 2.58%; to `COc1ccccc1OP(C)(=O)Nc1cccc(Br)c1` (configuration not stated), inactive: 1.57%. The result for `Cc1nc2ccc3ccccc3c2s1.O=[N+]([O-])c1cc([N+](=O)[O-])c(O)c([N+](=O)[O-])c1` reads inactive: 0.68%; that for `O=[N+]([O-])c1cc([N+](=O)[O-])c(-c2cnn(-c3ccccc3)c2)c([N+](=O)[O-])c1`, inactive: -4.5%; that for `O=[N+]([O-])c1cc([N+](=O)[O-])c(-n2nnc3ccccc32)c([N+](=O)[O-])c1`, inactive: 4.46%. Regarding `CP(=O)(Nc1ccc(SC(F)(F)F)cc1)Oc1ccccc1` (configuration not stated), the inhibition was inactive: -2.94%. To `CCCOc1ccc(NP(C)(=O)Oc2ccc(Cl)cc2)cc1` (configuration not stated) belongs inactive: 0.26%. The result for `CN1CCCCC1COC(=O)C1(O)c2ccccc2CCc2ccccc21` (configuration not stated) reads inactive: 1.53%; that for `COc1ccccc1OP(C)(=O)Nc1c(C)cccc1C` (configuration not stated), inactive: 6.97%. Turning to `O=[N+]([O-])c1cc([N+](=O)[O-])c(Nc2nnnn2CCO)c([N+](=O)[O-])c1`, the inhibition is inactive: -1.04%. The result for `CC1=C2N=C(C=C3N=C(C(C)=C4[N-][C@@](C)([C@@H]5N=C1[C@](C)(CCC(=O)NC[C@@H](C)OP(=O)([O-])O[C@H]1[C@@H](O)[C@@H](n6cnc7cc(C)c(C)cc76)O[C@@H]1CO)[C@H]5CC(N)=O)[C@@](C)(CC(N)=O)[C@@H]4CCC(N)=O)[C@@](C)(CC(N)=O)[C@@H]3CCC(N)=O)C(C)(C)[C@@H]2CCC(N)=O.[C-]#N.[Co+3]` reads inactive: 2.12%; that for `CCOC(=O)C(CC)C1=NC(C)(C)Cc2ccccc21.O=[N+]([O-])c1cc([N+](=O)[O-])c(O)c([N+](=O)[O-])c1` (configuration not stated), inactive: -2.22%; that for `COc1ccccc1OP(C)(=O)Nc1ccccc1` (configuration not stated), inactive: 15.2%.

As for `CP(=O)(Nc1ccccc1Br)Oc1ccccc1` (configuration not stated), the inhibition was inactive: -1.9%. To `CP(=S)(Nn1cnnc1)Oc1ccccc1` (configuration not stated) belongs inactive: -0.38%; to `CP(=O)(Nc1ccccn1)Oc1ccc(Cl)cc1` (configuration not stated), inactive: -4.45%; to `CCOP(C)(=S)SCC(=O)NC(C)C(=O)O` (configuration not stated), inactive: -0.38%. To `O=[N+]([O-])c1cc([N+](=O)[O-])c(O)c([N+](=O)[O-])c1.c1ccc(Oc2ccncc2)cc1` belongs inactive: -0.2%; to `CCOC(=O)c1ccc(NP(C)(=O)Oc2ccc(OC)cc2)cc1` (configuration not stated), inactive: 4.19%; to `CCc1ccc(OP(C)(=O)N2CCN(c3ccc([N+](=O)[O-])cc3)CC2)cc1` (configuration not stated), inactive: -2.01%. `CP(=O)(NC(=O)Nc1ccccc1)Oc1ccccc1` (configuration not stated): the inhibition was inactive: -0.75%.

For `Cc1cc(C)cc(OP(C)(=O)Nc2ccc(SC(F)(F)F)cc2)c1` (configuration not stated), the inhibition was inactive: 5.63%. The result for `CP(=O)(Nc1ccc(SC(F)(F)F)cc1)Oc1ccc(Cl)cc1` (configuration not stated) reads inactive: 8.98%. To `Cc1cccc(C)c1OP(C)(=O)Nc1ccc(SC(F)(F)F)cc1` (configuration not stated) belongs inactive: -1.34%. For `CP(=O)(Oc1ccccc1)OC(c1ccccc1)C(F)(F)F` (configuration not stated), the inhibition was inactive: 11.6%.

As to `CCN(CC)CCCOC(=O)C(O)(c1ccccc1)c1ccccc1`, the inhibition is inactive: -0.09%.

For `COc1ccccc1OP(C)(=O)Nc1cc(Cl)ccc1C` (configuration not stated), the inhibition was inactive: -2.54%. To `COc1ccc(OP(C)(=O)Nc2cccc(F)c2)cc1` (configuration not stated) belongs inactive: -0.35%; to `Cc1cc(C)cc(OP(C)(N)=O)c1` (configuration not stated), inactive: 2.97%; to `CCOC(=O)c1ccc(NP(C)(=O)Oc2ccccc2)cc1` (configuration not stated), inactive: 2.12%.

Take `Cc1ccc(NP(C)(=O)Oc2ccccc2)c(C)c1` (configuration not stated): the inhibition is inactive: 1.34%. Take `CC(C)(C)c1ccc(OP(C)(=O)Nc2ccc(SC(F)(F)F)cc2)cc1` (configuration not stated): the inhibition was inactive: -6.72%. To `Cc1cccc(C)c1OP(C)(N)=O` (configuration not stated) belongs inactive: -7.4%; to `O=[N+]([O-])c1ccc2c(c1)C=Nc1ccccc1O2`, inactive: -0.05%.

On to `O=[N+]([O-])c1cc([N+](=O)[O-])c(Nc2cccnc2)c([N+](=O)[O-])c1`, for which the inhibition was inactive: -3.98%. The result for `CP(=O)(OCCOc1ccccc1)OCCOc1ccccc1` reads inactive: 2.9%. The result for `CP(=O)(Nc1ccc(Cl)cc1Cl)Oc1ccccc1` (configuration not stated) reads inactive: 2.36%.

As for `Cc1nc2ccc3ccccc3c2o1.O=[N+]([O-])c1cc([N+](=O)[O-])c(O)c([N+](=O)[O-])c1`, the inhibition was inactive: 5.4%. Consider `COc1ccc(OP(C)(=O)Nc2ccccc2Br)cc1` (configuration not stated), for which the inhibition is inactive: -0.01%. The result for `COc1ccccc1OP(C)(=O)Nc1ccc(C)c(C)c1` (configuration not stated) reads inactive: 0.43%; that for `Cc1cc(C)cc(OP(C)(=O)Nc2cccc(C(F)(F)F)c2)c1` (configuration not stated), inactive: -6.5%; that for `CCc1ccc(OP(C)(=O)O)cc1`, inactive: -3.87%. To `CP(=O)(Nc1ccccn1)Oc1ccccc1` (configuration not stated) belongs inactive: 2.03%; to `COc1ccccc1OP(C)(=O)Nc1ccc(C)cc1C` (configuration not stated), inactive: 4.09%; to `O=[N+]([O-])c1cc([N+](=O)[O-])c(Nc2ccccn2)c([N+](=O)[O-])c1`, inactive: 10.2%. As for `Cc1c(NP(C)(=O)Oc2ccc(C(C)C)cc2)c(=O)n(-c2ccccc2)n1C` (configuration not stated), the inhibition is inactive: 0.95%.

In the case of `CN(C)CCOC(=O)C(O)(c1ccccc1)C1CCCC1` (configuration not stated), the inhibition was inactive: -0.78%.

As to `COc1ccc(OP(C)(=O)Nc2ccccn2)cc1` (configuration not stated), the inhibition is inactive: -4.05%. The result for `COc1ccccc1OP(C)(=O)Nc1ccc(Br)cc1` (configuration not stated) reads inactive: -2.63%; that for `CN(C)C(=O)c1c([N+](=O)[O-])cc([N+](=O)[O-])cc1[N+](=O)[O-]`, inactive: 5.85%. The result for `CP(=O)(Nc1ccc(Cl)cc1)Oc1ccc(F)cc1` (configuration not stated) reads inactive: 4.75%. To `CC(C)(C)c1ccc(OP(C)(=O)O)cc1` belongs inactive: -4.54%; to `COc1ccccc1OP(C)(=O)Nc1ccccc1Br` (configuration not stated), inactive: -1.21%; to `CP(=O)(Oc1ccccc1)N1CCOC1=O` (configuration not stated), inactive: 2.68%. On to `CCc1ccc(OP(C)(=O)Nc2cccnc2)cc1` (configuration not stated), for which the inhibition is inactive: 6.89%. To `COc1ccccc1OP(C)(=O)Nc1c(C)n(C)n(-c2ccccc2)c1=O` (configuration not stated) belongs inactive: 5.86%.

For `O=C(OCCCN1CCCC1)C(O)(c1ccccc1)C1CCCCC1` (configuration not stated), the inhibition is inactive: 3.4%. Turning to `CCN(CC)CC(O)COC(=O)C(O)(c1ccccc1)C1CCCCC1` (configuration not stated), the inhibition was inactive: 6.14%. To `COc1ccc(OP(C)(=O)Nc2ccc(Br)cc2)cc1` (configuration not stated) belongs inactive: 4.1%.

Take `CP(=O)(OC12CC3CC(CC(C3)C1)C2)OC12CC3CC(CC(C3)C1)C2`: the inhibition is inactive: 9.11%.

As for `CCOC(=O)c1ccc(NP(C)(=O)Oc2ccc(Cl)cc2)cc1` (configuration not stated), the inhibition is inactive: 5.61%. To `Nc1ccc2c(ccc3cccnc32)n1.O=[N+]([O-])c1cc([N+](=O)[O-])c(O)c([N+](=O)[O-])c1` belongs inactive: 1.82%. For `O=[N+]([O-])c1cc([N+](=O)[O-])c(NCC2CCS(=O)(=O)C2)c([N+](=O)[O-])c1` (configuration not stated), the inhibition is inactive: 1.8%.

Regarding `COc1ccc(NP(C)(=O)Oc2ccccc2OC)cc1` (configuration not stated), the inhibition was inactive: 4.3%. To `CN(C)CCOC(=O)C(O)(c1ccccc1)C1CCCCC1` (configuration not stated) belongs inactive: 9.09%.

For the compound `COc1ccc(OP(C)(=O)Nc2cccc(Br)c2)cc1` (configuration not stated), the inhibition was inactive: 0.19%.

For the compound `Cc1ccccc1NP(C)(=O)Nc1ccccc1C`, the inhibition is inactive: -0.94%.

For `CP(=O)(Nc1ccc2c(c1)OCCO2)Oc1ccccc1` (configuration not stated), the inhibition was inactive: 6.76%. As to `CCOP(C)(=S)SCC(=O)NC(C)(CC)C(=O)O` (configuration not stated), the inhibition is inactive: 5.82%. As for `CP(=O)(Nc1ccc(SC(F)(F)F)cc1)Oc1ccc(F)cc1` (configuration not stated), the inhibition was inactive: 3.61%. For `COc1ccc2c(c1O)-c1c(O)c(OC)cc3c1[C@H](C2)[N+](C)(C)CC3.O=[N+]([O-])c1cc([N+](=O)[O-])c([O-])c([N+](=O)[O-])c1[O-]`, the inhibition was inactive: 10.4%. The result for `O=C(OCCN1CCN(CCOCc2ccccc2)CC1)C(O)(c1ccccc1)c1ccccc1` reads inactive: 7.09%; that for `O=C(OC1CN2CCC1CC2)c1ccc([N+](=O)[O-])cc1` (configuration not stated), inactive: -1.89%. The result for `CC(C)c1ccc(OP(C)(=O)Nc2ccc(SC(F)(F)F)cc2)cc1` (configuration not stated) reads inactive: 8.84%; that for `CP(=O)(Nc1ccccc1F)Oc1ccccc1` (configuration not stated), inactive: 2.3%. To `CCCCCOc1ccc(NP(C)(=O)Oc2ccc(Cl)cc2Cl)cc1` (configuration not stated) belongs inactive: 4.54%. With `O=[N+]([O-])c1cc([N+](=O)[O-])c(OC2CCCCC2O)c([N+](=O)[O-])c1` (configuration not stated), the inhibition was inactive: 7.59%.

Consider `CP(=O)(Nc1ccccc1)Oc1ccc(F)cc1` (configuration not stated), for which the inhibition was inactive: -12.4%. On to `CCN(CC)CCCOC(=O)C(O)(c1ccccc1)C1CCCCC1` (configuration not stated), for which the inhibition is inactive: 2.9%. On to `COc1ccc(OP(C)(=O)Nc2ccc(SC(F)(F)F)cc2)cc1` (configuration not stated), for which the inhibition was inactive: 0.78%. To `CCOC(=O)c1ccc(NP(C)(=O)Oc2ccc(F)cc2)cc1` (configuration not stated) belongs inactive: -1.01%.

The values are drawn from PubChem BioAssay AID2280 (The Scripps Research Institute Molecular Screening Center, 2010).
